Values of other authors in US20070016968A1, “Treatment of pain through expression of opioid receptors” (priority 2003, published 2007).

Sequences of proteins named here, by UniProt entry; tags and fusion partners are left off.
UniProt P32300, whole entry: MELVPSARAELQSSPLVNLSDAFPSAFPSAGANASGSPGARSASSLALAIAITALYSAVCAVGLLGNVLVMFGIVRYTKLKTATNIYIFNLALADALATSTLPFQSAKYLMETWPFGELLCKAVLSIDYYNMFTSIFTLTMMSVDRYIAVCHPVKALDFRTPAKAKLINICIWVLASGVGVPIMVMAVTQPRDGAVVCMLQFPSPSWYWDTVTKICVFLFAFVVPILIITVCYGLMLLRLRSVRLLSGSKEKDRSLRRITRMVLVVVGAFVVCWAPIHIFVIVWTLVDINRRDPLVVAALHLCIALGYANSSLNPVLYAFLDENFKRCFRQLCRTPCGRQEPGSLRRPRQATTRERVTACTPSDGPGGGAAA
UniProt P41143, whole entry: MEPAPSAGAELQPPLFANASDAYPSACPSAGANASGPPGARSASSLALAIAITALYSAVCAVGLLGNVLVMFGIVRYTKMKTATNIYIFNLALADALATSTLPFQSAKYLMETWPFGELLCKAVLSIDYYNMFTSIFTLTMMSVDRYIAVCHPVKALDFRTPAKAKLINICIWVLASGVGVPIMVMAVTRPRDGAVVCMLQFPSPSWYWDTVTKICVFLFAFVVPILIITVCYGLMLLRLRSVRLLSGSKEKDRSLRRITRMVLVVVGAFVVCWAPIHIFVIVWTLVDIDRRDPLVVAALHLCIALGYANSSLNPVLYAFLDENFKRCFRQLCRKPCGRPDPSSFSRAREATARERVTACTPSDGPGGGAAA

Columns and labels:
cloned DOR-1 receptor [1] = molecular target: cloned DOR-1 receptor (Mus musculus, UniProt P32300); settings: mouse recombinant receptor (Law et al 1994)
cloned DOR-1 receptor [2] = molecular target: cloned DOR-1 receptor (Homo sapiens, UniProt P41143); settings: human recombinant receptor (Law et al 1994)

DPDPE
binding to recombinant receptor (cloned DOR-1 receptor [1]): bind
binding to recombinant receptor (cloned DOR-1 receptor [2]): bind
